Test system: GBM39 cells
Assay: Next generation sequencing fine structure analysis of EGFRvIII amplification in GBM39 cultures
Format: cell-based, human
Conditions: Erlotinib removed (biological replicates in rows 5 and 6), FIG. 13B

C#Cc1cccc(Nc2ncnc3cc(OCCOC)c(OCCOC)cc23)c1 [Erlotinib]
Average copy numbers of amplified intervals as determined from sequencing analysis: 100-105

Reference: patent US11193164B2, “Methods of diagnosing and treating cancer targeting extrachromosomal DNA” (The Regents of the University of California, priority 2017, dated 2021)
